The numbers were not newly measured in patent US20190091190A1, “COMBINATION THERAPY FOR TREATMENT OF MULTIPLE SCLEROSIS” (FWP IP ApS, priority 2012, published 2019), which cites them from elsewhere.

The test system of series [1] is patients with RRMS. The note with it: 30 μg/week i.m.
Series [2] has as its system patients with RRMS. To be noted: Rebif arm.
In another series the test system is RRMS patients. To be noted: interferon beta-1a arm.

With “Avonex: intramuscular IFN-b-1a, 30 μg/week, comparator in TRANSFORMS”, in the series on patients with RRMS [1], the “AE leading to the discontinuation of study medication” value is listed as 3.7% and the “overall number of SAE” value is recorded as 5.8%. The patients remaining relapse-free with patients with RRMS [1] (12 months) is 69%.

B1: Rebif: Interferon beta-1a product, comparator arm in TENERE (protein, UniProt P01574 22-187, looked up)
Interferon beta: MSYNLLGFLQRSSNFQCQKLLWQLNGRLEYCLKDRMNFDIPEEIKQLQQFQKEDAALTIYEMLQNIFAIFRQDSSSTGWNETIVENLLANVYHQINHLKTVLEEKLEKEDFTRGKLMSSLHLKRYYGRILHYLKAKEYSHCAWTIVRVEILRNFYFINRLTGYLRN
Consider B1, for which, in the series with patients with RRMS [2], the relapse rate is reported as 0.216.

B2: interferon beta-1a: exploratory interferon beta-1a arm in BRAVO, brand not stated (protein, UniProt P01574 22-187, looked up)
Interferon beta: MSYNLLGFLQRSSNFQCQKLLWQLNGRLEYCLKDRMNFDIPEEIKQLQQFQKEDAALTIYEMLQNIFAIFRQDSSSTGWNETIVENLLANVYHQINHLKTVLEEKLEKEDFTRGKLMSSLHLKRYYGRILHYLKAKEYSHCAWTIVRVEILRNFYFINRLTGYLRN
In the case of B2, the “treatment effect on brain atrophy” value with RRMS patients is “no treatment effect”. The “ARR reduced compared to placebo” value with RRMS patients (p=0.002) is on record as 29%. The disability progression reduced in the series with RRMS patients (p=0.089) is recorded as 29%.
